Assay results taken from patent publication US11111233B2, “Amino pyrimidine compound for inhibiting protein tyrosine kinase activity” (Shenzhen TargetRx, Inc., priority 2016, dated 2021).
Where two headings read alike, the source gives them in different places.

How the values were obtained:
[1] = test system: Skin cancer cell line A431 (WT); experiment: Cytotoxicity test (MTS cell viability), A431; conditions: read-out: A431 (WT) IC50, 72 hours
[2] = test system: lung cancer cells HCC827 (Del19); experiment: Cytotoxicity test (MTS cell viability), HCC827; type: cell-based; conditions: read-out: HCC827 (Del19) IC50, 72 hours
[3] = test system: lung cancer cells NCI-H1975 (L858R/T790M); experiment: Cytotoxicity test (MTS cell viability), NCI-H1975; conditions: read-out: H1975 (L858R/T790M) IC50

Row | Structure (SMILES) | IC50 [1] [nM] | IC50 [2] [nM] | IC50 [3] [nM] | IC50 ([3]; MTS, 72 hours) [nM]
1 | C=CC(=O)Nc1cc(Nc2nccc(-c3cnc4nc(OC)n(C(C)C)c4c3)n2)c(OC)cc1N(C)CCN(C)C | 400 to 1000 | 10 to 100 | 10 to 100 | 
2 | C=CC(=O)Nc1cc(Nc2nccc(-c3cc(F)c4nc(C)n(C(C)C)c4c3)n2)c(OC)cc1N1CCC(OCC)CC1 |  |  |  | > 1000
